The EC50 is the concentration at which the effect is half-maximal. Broadly, the IC50 is the concentration that inhibits the measured activity by half. A word on the Ki: it is the equilibrium dissociation constant of an inhibitor or competing ligand from its target. A higher Ki goes with weaker binding.

Amino acid sequences for entries named in this document (tags omitted). A change or cut given only in a name is not applied to a line headed by its entry.
UniProt P41145: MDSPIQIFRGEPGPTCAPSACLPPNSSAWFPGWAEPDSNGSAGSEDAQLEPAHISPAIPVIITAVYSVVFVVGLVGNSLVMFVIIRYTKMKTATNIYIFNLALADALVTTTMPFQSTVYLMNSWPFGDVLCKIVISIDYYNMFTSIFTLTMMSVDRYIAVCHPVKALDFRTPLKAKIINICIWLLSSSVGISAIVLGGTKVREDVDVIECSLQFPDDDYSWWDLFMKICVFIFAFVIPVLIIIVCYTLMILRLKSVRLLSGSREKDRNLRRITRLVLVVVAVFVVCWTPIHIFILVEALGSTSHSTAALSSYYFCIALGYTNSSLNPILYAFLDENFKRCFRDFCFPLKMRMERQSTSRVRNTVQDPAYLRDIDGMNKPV
UniProt P41143, whole entry, looked up: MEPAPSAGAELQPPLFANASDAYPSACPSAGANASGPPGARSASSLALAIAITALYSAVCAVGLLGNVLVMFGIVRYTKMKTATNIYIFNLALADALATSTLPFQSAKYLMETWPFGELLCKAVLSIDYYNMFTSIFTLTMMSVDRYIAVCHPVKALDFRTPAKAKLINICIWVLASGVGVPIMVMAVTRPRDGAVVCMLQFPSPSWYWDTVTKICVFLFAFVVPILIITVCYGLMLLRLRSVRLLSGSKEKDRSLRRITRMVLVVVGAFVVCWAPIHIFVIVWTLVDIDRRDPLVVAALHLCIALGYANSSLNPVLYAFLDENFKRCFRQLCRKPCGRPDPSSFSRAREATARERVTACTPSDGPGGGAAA
UniProt P35372, whole entry, looked up: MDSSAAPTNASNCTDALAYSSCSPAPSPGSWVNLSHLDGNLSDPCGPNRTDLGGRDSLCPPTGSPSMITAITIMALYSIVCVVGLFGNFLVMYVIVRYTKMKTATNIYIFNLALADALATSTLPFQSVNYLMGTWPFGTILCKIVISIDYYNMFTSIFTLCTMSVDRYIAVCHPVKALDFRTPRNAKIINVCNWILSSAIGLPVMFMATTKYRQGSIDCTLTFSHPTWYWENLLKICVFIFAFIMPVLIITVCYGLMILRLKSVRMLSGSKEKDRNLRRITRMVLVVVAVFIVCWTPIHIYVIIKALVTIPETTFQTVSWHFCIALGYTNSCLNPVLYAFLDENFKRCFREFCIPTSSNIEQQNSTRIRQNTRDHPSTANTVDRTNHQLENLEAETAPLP

Here are results for 4 compounds from ChEMBL document CHEMBL4433209, “Novel Cyclic Biphalin Analogues by Ruthenium-Catalyzed Ring Closing Metathesis: in Vivo and in Vitro Biological Profile” (2019).

Test [1] has as its system Mus musculus. The experiment in a line: Analgesic activity in CD1 mouse at 1.5 nmol, iv measured after 45 mins by hot plate test relative to control. In general terms: Hot-plate and tail-flick tests time the reaction to a heat stimulus.
The subject of test [2] is Mus musculus. The test is described as follows: Analgesic activity in CD1 mouse at 0.15 nmol, icv measured after 60 mins by hot plate test relative to control.
The target of test [3] is T1, Kappa-type opioid receptor (Homo sapiens, UniProt P41145). The experiment in a line: Agonist activity at human kappa opioid receptor expressed in CHO cell membranes incubated for 1 hr by [35S]GTPgammaS binding assay.
The target in test [4] is T2, Delta-type opioid receptor (Homo sapiens, UniProt P41143). The test is described as follows: Antagonist activity at human delta opioid receptor expressed in CHO cell membranes assessed as reduction in SNC80-induced [35S]GTPgammaS binding incubated for 1 hr.
In test [5] the target is T2, Delta-type opioid receptor. The experiment in a line: Displacement of [3H]-diprenorphine from human delta opioid receptor expressed in CHO cell membranes incubated for 1 hr by micro beta2 scintillation counting method. (Displacement assays read how much labelled ligand stays bound in the presence of the test substance.)
Test [6] addresses T3, Mu-type opioid receptor (Homo sapiens, UniProt P35372). The test is described as follows: Agonist activity at human mu opioid receptor expressed in CHO cell membranes incubated for 1 hr by [35S]GTPgammaS binding assay.
In test [7] the target is T3, Mu-type opioid receptor. The test is described as follows: Displacement of [3H]-diprenorphine from human mu opioid receptor expressed in CHO cell membranes incubated for 1 hr by micro beta2 scintillation counting method.
Test [8] concerns the target T1, Kappa-type opioid receptor. The test is described as follows: Displacement of [3H]-diprenorphine from human kappa opioid receptor expressed in CHO cell membranes incubated for 1 hr by micro beta2 scintillation counting method.

Consider `N[C@@H](Cc1ccc(O)cc1)C(=O)N[C@@H]1C/C=C\C[C@@H](NC(=O)[C@@H](N)Cc2ccc(O)cc2)C(=O)NCC(=O)N[C@@H](Cc2ccccc2)C(=O)NNC(=O)[C@H](Cc2ccccc2)NC(=O)CNC1=O.O=C(O)C(F)(F)F.O=C(O)C(F)(F)F`, for which the MPE in the test with Mus musculus [1] and in the test with Mus musculus [2] was < 50% throughout.

For the compound `N[C@@H](Cc1ccc(O)cc1)C(=O)N[C@@H]1C/C=C/C[C@@H](NC(=O)[C@@H](N)Cc2ccc(O)cc2)C(=O)NCC(=O)N[C@@H](Cc2ccccc2)C(=O)NNC(=O)[C@H](Cc2ccccc2)NC(=O)CNC1=O`, the values for the EC50 (in test [3]; at Mu-type opioid receptor [6]) were 969 nM and 17.7 nM, respectively. Also, the IC50 in test [4] is 0.36 nM. Besides, the Ki in test [5] came out at 5.2 nM; at Mu-type opioid receptor [7], 53.6 nM; in test [8] it was 686 nM.

Consider `N[C@@H](Cc1ccc(O)cc1)C(=O)N[C@@H]1C/C=C/C[C@@H](NC(=O)[C@@H](N)Cc2ccc(O)cc2)C(=O)NCC(=O)N[C@@H](Cc2ccccc2)C(=O)NNC(=O)[C@H](Cc2ccccc2)NC(=O)CNC1=O.O=C(O)C(F)(F)F.O=C(O)C(F)(F)F`, for which the MPE entry with Mus musculus [1] and with Mus musculus [2] was “>=50%” each time.

On to `N[C@@H](Cc1ccc(O)cc1)C(=O)N[C@@H]1C/C=C\C[C@@H](NC(=O)[C@@H](N)Cc2ccc(O)cc2)C(=O)NCC(=O)N[C@@H](Cc2ccccc2)C(=O)NNC(=O)[C@H](Cc2ccccc2)NC(=O)CNC1=O`, for which the concentration giving a half-maximal response (EC50) in test [3] was determined as 1840 nM; on Mu-type opioid receptor [6] it was 19.6 nM. Further, the IC50 in test [4] was found to be 44.8 nM. Further, the values for the inhibitory constant (Ki) (in test [5]; on Mu-type opioid receptor [7]; in test [8]) were 7.3 nM, 75.8 nM and 495 nM, respectively.
